Our source for the Ki values is patent US8952157B2, “Apoptosis-inducing agents for the treatment of cancer and immune and autoimmune diseases” (AbbVie Inc., priority 2008, dated 2015).

The chains behind the UniProt entries cited, without tags or fusion partners.
UniProt P10415, whole entry: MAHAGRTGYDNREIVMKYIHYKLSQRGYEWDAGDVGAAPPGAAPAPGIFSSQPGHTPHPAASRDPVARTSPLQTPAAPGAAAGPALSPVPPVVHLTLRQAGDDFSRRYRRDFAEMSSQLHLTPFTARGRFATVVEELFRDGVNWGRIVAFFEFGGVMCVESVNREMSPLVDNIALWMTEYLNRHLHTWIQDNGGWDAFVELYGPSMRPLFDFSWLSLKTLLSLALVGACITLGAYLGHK

The target in this assay is GST-Bcl-2 (Homo sapiens (Human), UniProt P10415). The experiment in a line: Time Resolved-Fluorescence Resonance Energy Transfer (TR-FRET) Bcl-2 binding assay. The note with it: GST-Bcl-2 1 nM, F-Bak peptide probe 100 nM, Tb-anti-GST antibody 1 nM; Ki by Wang's equation. As for the experimental part:
Determination of the utility of compounds having Formula (I) as binders to and inhibitors of anti-apoptotic Bcl-2 proteins was performed using the Time Resolved-Fluorescence Resonance Energy Transfer (TR-FRET) Assay. Tb-anti-GST antibody was purchased from Invitrogen (Catalog No. PV4216).
Representative compounds were serially diluted in dimethyl sulfoxide (DMSO) starting at 50 μM (2× starting concentration; 10% DMSO) and 10 μL were transferred into a 384-well plate. The samples are then mixed on a shaker for 1 minute and incubated for an additional 3 hours at room temperature. For each assay, the probe/antibody and protein/probe/antibody were included on each assay plate as negative and positive controls, respectively. Fluorescence was measured on the Envision (Perkin Elmer) using a 340/35 nm excitation filter and 520/525 (F-Bak peptide) and 495/510 nm (Tb-labeled anti-Histidine antibody) emission filters.
The samples were then mixed on a shaker for 1 minute and incubated for an additional 3 hours at room temperature. For each assay, the probe/antibody and protein/probe/antibody were included on each assay plate as negative and positive controls, respectively. Fluorescence was measured on the Envision (Perkin Elmer) using a 340/35 nm excitation filter and 520/525 (F-Bak peptide) and 495/510 nm (Tb-labeled anti-Histidine antibody) emission filters.
The inhibition constant (Ki) is the dissociation constant of an enzyme-inhibitor complex or a protein/small molecule complex, wherein the small molecule is inhibiting binding of one protein to another protein. So a large Ki value indicates a low binding affinity and a small Ki value indicates a high binding affinity.
A general note: Time-resolved FRET reads energy transfer from a long-lived donor to a nearby acceptor.

As usually defined, the Ki is a measure of affinity in units of concentration, obtained from inhibition or displacement.

Regarding `O=C(NS(=O)(=O)c1ccc(NCCCN2CCOCC2)c([N+](=O)[O-])c1)c1ccc(N2CCN(Cc3ccccc3-c3ccc(Cl)cc3)CC2)cc1Oc1ccccc1Cl` [Example 10, 4-(4-((4′-chloro-1,1′-biphenyl-2-yl)methyl)piperazin-1-yl)-2-(2-chlorophenoxy)-N-((4-((3-morpholin-4-ylpropyl)amino)-3-nitrophenyl)sulfonyl)benzamide], the Ki was determined as 720 pM.

For the compound `CN(C)CCCNc1ccc(S(=O)(=O)NC(=O)c2ccc(N3CCN(Cc4ccccc4-c4ccc(Cl)cc4)CC3)cc2Oc2cccc(N3CCOCC3)c2)cc1[N+](=O)[O-]` [Example 32, 4-(4-((4′-chloro-1,1′-biphenyl-2-yl)methyl)piperazin-1-yl)-N-((4-((3-(dimethylamino)propyl)amino)-3-nitrophenyl)sulfonyl)-2-(3-morpholin-4-ylphenoxy)benzamide], the Ki was 1580 pM.

`CN1CCC(Nc2ccc(S(=O)(=O)NC(=O)c3ccc(N4CCN(CC5=C(c6ccc(Cl)cc6)CC(C)(C)CC5)CC4)cc3Oc3ccccc3Br)cc2[N+](=O)[O-])CC1` [Example 42, 2-(2-bromophenoxy)-4-(4-((2-(4-chlorophenyl)-4,4-dimethylcyclohex-1-en-1-yl)methyl)piperazin-1-yl)-N-((4-((1-methylpiperidin-4-yl)amino)-3-nitrophenyl)sulfonyl)benzamide] registered a Ki of 30 pM.

Regarding `CC1(C)CCC(CN2CCN(c3ccc(C(=O)NS(=O)(=O)c4ccc(NC5CCN(C6CC6)CC5)c([N+](=O)[O-])c4)c(Oc4ccccc4Cl)c3)CC2)=C(c2ccc(Cl)cc2)C1` [Example 65, 2-(2-chlorophenoxy)-4-(4-((2-(4-chlorophenyl)-4,4-dimethylcyclohex-1-en-1-yl)methyl)piperazin-1-yl)-N-((4-((1-cyclopropylpiperidin-4-yl)amino)-3-nitrophenyl)sulfonyl)benzamide], the inhibition constant Ki stood at 520 pM.

Consider `CCNCc1ccc(Oc2cc(N3CCN(Cc4ccccc4-c4ccc(Cl)cc4)CC3)ccc2C(=O)NS(=O)(=O)c2ccc(NCC3CCOCC3)c([N+](=O)[O-])c2)cc1` [Example 80, 4-(4-((4′-chloro-1,1′-biphenyl-2-yl)methyl)piperazin-1-yl)-2-(4-((ethylamino)methyl)phenoxy)-N-((3-nitro-4-((tetrahydro-2H-pyran-4-ylmethyl)amino)phenyl)sulfonyl)benzamide], for which the Ki was 149000 pM. This Ki lies about 290-fold higher than the previous one.

The compound `CC1(C)CCC(CN2CCN(c3ccc(C(=O)NS(=O)(=O)c4ccc(NCCCN5CCOCC5)c([N+](=O)[O-])c4)c(Oc4cccc(F)c4)c3)CC2)=C(c2ccc(Cl)cc2)C1` [Example 114, 4-(4-{[2-(4-chlorophenyl)-4,4-dimethylcyclohex-1-en-1-yl]methyl}piperazin-1-yl)-2-(3-fluorophenoxy)-N-({4-[(3-morpholin-4-ylpropyl)amino]-3-nitrophenyl}sulfonyl)benzamide] showed a Ki of 36 pM. Against the preceding compound, the Ki is about 4100-fold lower.

The compound `CC1(C)CCC(CN2CCN(c3ccc(C(=O)NS(=O)(=O)c4ccc(NC5CCN(C6CCCC6)CC5)c([N+](=O)[O-])c4)c(Oc4ccccc4F)c3)CC2)=C(c2ccc(Cl)cc2)C1` [Example 134, 4-(4-{[2-(4-chlorophenyl)-4,4-dimethylcyclohex-1-en-1-yl]methyl}piperazin-1-yl)-N-({4-[(1-cyclopentylpiperidin-4-yl)amino]-3-nitrophenyl}sulfonyl)-2-(2-fluorophenoxy)benzamide] returned a Ki of 181 pM.

The compound `CC1(C)CCC(CN2CCN(c3ccc(C(=O)NS(=O)(=O)c4ccc(NC5CCN(C6CCOCC6)CC5)c([N+](=O)[O-])c4)c(Oc4c(F)cccc4Cl)c3)CC2)=C(c2ccc(Cl)cc2)C1` [Example 152, 2-(2-chloro-6-fluorophenoxy)-4-(4-{[2-(4-chlorophenyl)-4,4-dimethylcyclohex-1-en-1-yl]methyl}piperazin-1-yl)-N-({3-nitro-4-[(1-tetrahydro-2H-pyran-4-ylpiperidin-4-yl)amino]phenyl}sulfonyl)benzamide] showed a Ki of 18600 pM.

Consider `CN1CCC(CNc2ccc(S(=O)(=O)NC(=O)c3ccc(N4CCN(CC5=C(c6ccc(Cl)cc6)CC(C)(C)CC5)CC4)cc3Oc3cccc(F)c3F)cc2[N+](=O)[O-])CC1` [Example 156, 4-(4-{[2-(4-chlorophenyl)-4,4-dimethylcyclohex-1-en-1-yl]methyl}piperazin-1-yl)-2-(2,3-difluorophenoxy)-N-[(4-{[(1-methylpiperidin-4-yl)methyl]amino}-3-nitrophenyl)sulfonyl]benzamide], for which the Ki is 35 pM.

Compound `COCCOCCN1CCC(Nc2ccc(S(=O)(=O)NC(=O)c3ccc(N4CCN(CC5=C(c6ccc(Cl)cc6)CC(C)(C)CC5)CC4)cc3Oc3cccc(Cl)c3)cc2[N+](=O)[O-])CC1` [Example 170, 2-(3-chlorophenoxy)-4-(4-{[2-(4-chlorophenyl)-4,4-dimethylcyclohex-1-en-1-yl]methyl}piperazin-1-yl)-N-{[4-({1-[2-(2-methoxyethoxy)ethyl]piperidin-4-yl}amino)-3-nitrophenyl]sulfonyl}benzamide] yielded a Ki of 36 pM.

Compound `CN(C)C(=O)CN1CCC(Nc2ccc(S(=O)(=O)NC(=O)c3ccc(N4CCN(CC5=C(c6ccc(Cl)cc6)CC(C)(C)CC5)CC4)cc3Oc3cccc(Cl)c3)cc2[N+](=O)[O-])CC1` [Example 189, 2-(3-chlorophenoxy)-4-(4-{[2-(4-chlorophenyl)-4,4-dimethylcyclohex-1-en-1-yl]methyl}piperazin-1-yl)-N-{[4-({1-[2-(dimethylamino)-2-oxoethyl]piperidin-4-yl}amino)-3-nitrophenyl]sulfonyl}benzamide] gave a Ki of 36 pM. In other words, the picomolar range.

On to `CC1(C)CCC(CN2CCN(c3ccc(C(=O)NS(=O)(=O)c4ccc(NCC5(N)CCOCC5)c([N+](=O)[O-])c4)c(Oc4ccccc4Cl)c3)CC2)=C(c2ccc(Cl)cc2)C1` [Example 191, N-[(4-{[(4-aminotetrahydro-2H-pyran-4-yl)methyl]amino}-3-nitrophenyl)sulfonyl]-2-(2-chlorophenoxy)-4-(4-{[2-(4-chlorophenyl)-4,4-dimethylcyclohex-1-en-1-yl]methyl}piperazin-1-yl)benzamide], for which the Ki came out at 552 pM.

In turn, `CC1(C)CCC(CN2CCN(c3ccc(C(=O)NS(=O)(=O)c4ccc(NC5CCN(C6CCOCC6)CC5)c([N+](=O)[O-])c4)c(OCc4csc(N)n4)c3)CC2)=C(c2ccc(Cl)cc2)C1` [Example 219, 2-[(2-amino-1,3-thiazol-4-yl)methoxy]-4-(4-{[2-(4-chlorophenyl)-4,4-dimethylcyclohex-1-en-1-yl]methyl}piperazin-1-yl)-N-({3-nitro-4-[(1-tetrahydro-2H-pyran-4-ylpiperidin-4-yl)amino]phenyl}sulfonyl)benzamide] came in with a Ki of 14900 pM.

Regarding `CN1CCN(Nc2ccc(S(=O)(=O)NC(=O)c3ccc(N4CCN(CC5=C(c6ccc(Cl)cc6)CC(C)(C)CC5)CC4)cc3Oc3cc4cc[nH]c4cc3F)cc2[N+](=O)[O-])CC1` [Example 221, 4-(4-{[2-(4-chlorophenyl)-4,4-dimethylcyclohex-1-en-1-yl]methyl}piperazin-1-yl)-2-[(6-fluoro-1H-indol-5-yl)oxy]-N-({4-[(4-methylpiperazin-1-yl)amino]-3-nitrophenyl}sulfonyl)benzamide], the affinity, expressed as Ki, was 227 pM.

In turn, `CC1(C)CCC(CN2CCN(c3ccc(C(=O)NS(=O)(=O)c4ccc(NC5CCN(CC6CC6)CC5)c([N+](=O)[O-])c4)c(Oc4cc5cc[nH]c5c(F)c4F)c3)CC2)=C(c2ccc(Cl)cc2)C1` [Example 237, 4-(4-{[2-(4-chlorophenyl)-4,4-dimethylcyclohex-1-en-1-yl]methyl}piperazin-1-yl)-N-[(4-{[1-(cyclopropylmethyl)piperidin-4-yl]amino}-3-nitrophenyl)sulfonyl]-2-[(6,7-difluoro-1H-indol-5-yl)oxy]benzamide] gave a Ki of 197 pM. The Ki values of the last two compounds are within 1.5-fold of each other.

As for `CC1(C)CCC(CN2CCN(c3ccc(C(=O)NS(=O)(=O)c4ccc(NCCCN5CCNC(=O)C5)c([N+](=O)[O-])c4)c(Oc4cc5cc[nH]c5c(F)c4F)c3)CC2)=C(c2ccc(Cl)cc2)C1` [Example 239, 4-(4-{[2-(4-chlorophenyl)-4,4-dimethylcyclohex-1-en-1-yl]methyl}piperazin-1-yl)-2-[(6,7-difluoro-1H-indol-5-yl)oxy]-N-[(3-nitro-4-{[3-(3-oxopiperazin-1-yl)propyl]amino}phenyl)sulfonyl]benzamide], the Ki was 105 pM. This Ki is about 1.9-fold lower than that of the compound before.

The compound `CC1(C)CCC(CN2CCN(c3ccc(C(=O)NS(=O)(=O)c4ccc(NCC5(CO)CCOCC5)c([N+](=O)[O-])c4)c(Oc4ccccc4Cl)c3)CC2)=C(c2ccc(Cl)cc2)C1` [Example 250, 2-(2-chlorophenoxy)-4-(4-{[2-(4-chlorophenyl)-4,4-dimethylcyclohex-1-en-1-yl]methyl}piperazin-1-yl)-N-{[4-({[4-(hydroxymethyl)tetrahydro-2H-pyran-4-yl]methyl}amino)-3-nitrophenyl]sulfonyl}benzamide] gave an inhibition constant Ki of 672 pM.
